# Experimental data from PMC7468108 (Communications Biology, 2020).
# Read-outs that look alike come from different tables or passages of the source.
# Test system: HEK-293 cells
# Details: 24 h; for %Viability: human
# Experimental: The SH-SY5Y and HEK-293 cell lines (2 × 10^5 cells/mL) were cultured in 96-well tissue microplates (100 µL/well) and allowed to adhere overnight at 37 °C. The conjugate molecules were dissolved in DMEM:nutrient mixture F12 (Ham’s) (1:1) (Biological Industries, Israel) at different concentrations. The negative control was prepared as medium without hybrid molecules and treated in the same manner. 100 µL of medium with or without hybrid molecules were added to each well in triplicate. Following incubation for 24 h at 37 °C, cell viability was evaluated using the 2,3-bis(2-methoxy-4-nitro-5-sulfophenyl)-2H-tetrazolium-5-carboxanilide (XTT) cell proliferation assay kit (Biological Industries, Israel) according to the manufacturer’s instructions. Briefly, 100 µL of activation reagent was added to 5 mL of XTT reagent, followed by the addition of 50 µL of activated-XTT solution to each well. After 2 h incubation at 37 °C, color intensity was measured using an ELISA microplate reader at 450 nm and 630 nm. […] Each experiment was repeated minimum three times.
smiles,measurement,setting,value
CC[C@H](C)[C@H](NC(=O)[C@H](C)NC(=O)CNC(=O)[C@H](Cc1ccccc1)NC(=O)[C@H](CC(N)=O)NC(=O)[C@H](CC(N)=O)NC(=O)[C@H](CO)NC(=O)[C@H](CO)NC(=O)[C@H](Cc1c[nH]cn1)NC(=O)[C@@H](NC(=O)[C@H](CC(C)C)NC(=O)[C@H](Cc1ccccc1)NC(=O)[C@H](CC(N)=O)NC(=O)[C@H](C)NC(=O)[C@H](CC(C)C)NC(=O)[C@H](CCCNC(=N)N)NC(=O)[C@H](CCC(N)=O)NC(=O)[C@@H](NC(=O)[C@H](C)NC(=O)[C@@H]1CSSC[C@H](NC(=O)[C@@H](N)CCCCN)C(=O)N[C@@H](CC(N)=O)C(=O)N[C@@H]([C@@H](C)O)C(=O)N[C@@H](C)C(=O)N[C@@H]([C@@H](C)O)C(=O)N1)[C@@H](C)O)C(C)C)C(=O)N[C@@H](CC(C)C)C(=O)N[C@@H](CO)C(=O)N[C@@H](CO)C(=O)N[C@H](C(=O)N[C@@H](CC(N)=O)C(=O)N[C@H](C(=O)NCC(=O)N[C@@H](CO)C(=O)N[C@@H](CC(N)=O)C(=O)N[C@H](C(=O)N[C@@H](Cc1ccc(O)cc1)C(N)=O)[C@@H](C)O)C(C)C)[C@@H](C)O [hIAPP],IC50,,~10 µM
same,%Viability,1 µM,80.064%
same,%Viability,5 µM,61.929%
same,%Viability,15 µM,44.440%
same,%Viability,20 µM,36.315%
